Yeast mating assay B: variants of the scFv Ab-14

Target peptide (SARS-CoV-2 spike, HR2 region): PDVDLGDISGINAS

Ab-14 is the parent antibody, in scFv form: VH, then a 15-residue (Gly4Ser)3 linker, then VL. The heavy chain is unchanged in all variants.
VH: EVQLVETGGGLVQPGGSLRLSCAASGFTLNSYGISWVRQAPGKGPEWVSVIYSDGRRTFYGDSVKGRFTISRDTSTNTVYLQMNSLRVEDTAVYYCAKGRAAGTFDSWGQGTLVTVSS
VL: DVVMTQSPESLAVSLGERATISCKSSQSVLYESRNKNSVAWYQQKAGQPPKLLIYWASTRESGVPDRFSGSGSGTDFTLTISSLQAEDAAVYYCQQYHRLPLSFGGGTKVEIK

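Phage display of a naive human antibody library on the peptide gave the parent. The variants were designed computationally from a first round of random CDR variants and then made and measured. Group labels follow the data file (Ctrl: baseline library sampled from a position-specific scoring matrix, with some repeated check sequences; En: ensemble of fine-tuned language models; GP: Gaussian process model; HC: hill climbing; Gen: genetic algorithm; Gibbs: Gibbs sampling; a sequence that several methods proposed may carry one label only). In AlphaSeq, yeast of one mating type display the scFv and yeast of the other type display the target. Mating (16 h, 30 °C) was followed by selection of diploids and sequencing of their barcodes. A regression on co-assayed BCL2-family reference pairs converts the normalised counts of each replicate to an apparent Kd. There are six technical replicates.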

The parent's light chain CDRs are KSSQSVLYESRNKNSVA, WASTRES, QQYHRLPLS; each variant's own CDRs replace them letter for letter.
Scale: log10 of Kd in nM, estimated from mating counts; low values are strong binders.
Replicates are averaged; those with no signal do not enter the mean.
A pair that was not seen in that replicate is written "n.d."; this usually means weak binding, but a binder can also be missed.
Order: sorted from the lowest average up, undetected variants last.
Empty control strains, which show no peptide, gave a signal in 4% of pairings with all light chain designs; the median was 2.64 and 95% of these signals were weaker than 1.59. No background was subtracted.
Values of this round are not directly comparable with the first-round values of the same sequences.
In the paper, a design with two or fewer of six values counts as a poor binder.

| # | log10 Kd, replicates | mean log10 Kd (nM) | CDR-L1 | CDR-L2 | CDR-L3 | group |
|---|---|---|---|---|---|---|
| 1 | -0.36 / -0.43 / -0.66 / -0.61 / -0.44 / -0.19 | -0.45 | TLSQSMDMTSRNKNSVA | DLTTREN | QQYHRLPLS | En_HC |
| 2 | 0.32 / -0.70 / -0.71 / -0.41 / -0.55 / -0.19 | -0.37 | KSDDSVSYTSRNKNSVA | EASTRES | MQYHRLPLS | Ctrl |
| 3 | -0.17 / -0.36 / -0.33 / -0.55 / -0.50 / -0.27 | -0.36 | KFSQSELFESRNKNSVA | DASTRES | QQYHRLPLS | GP_HC |
| 4 | -0.22 / -0.23 / -0.43 / -0.44 / -0.42 / -0.29 | -0.34 | KVSFSYLYESRNKNSVA | NASTRES | QQYHRLPLS | GP_HC |
| 5 | 0.17 / -0.04 / -0.16 / -0.25 / -0.13 / 0.00 | -0.07 | KMAMALSPEFGTYHGVA | DAEHRMH | QQYNRLPLS | En_Gibbs |
| 6 | 0.09 / -0.03 / -0.09 / -0.21 / -0.03 / 0.12 | -0.03 | KVQQHVLYESANKNSVA | SASTRES | QQYHRLPLS | Ctrl |
| 7 | 0.19 / 0.07 / -0.16 / 0.07 / -0.26 / -0.04 | -0.02 | KLSQSVLAESRNKNSVA | WASTRES | QQYHRLPLS | Ctrl |
| 8 | 0.24 / -0.02 / 0.22 / -0.08 / 0.00 / -0.12 | 0.04 | SLQQSWLYESRNKNSVA | NASTREW | QQYHRLPLS | GP_Gibbs |
| 9 | 0.24 / -0.04 / 0.02 / -0.24 / 0.16 / 0.13 | 0.04 | KLSQSELYESRNSNSVA | NASTRMS | QQYHRLPLS | GP_Gen |
| 10 | 0.17 / 0.10 / 0.06 / 0.11 / 0.28 / 0.20 | 0.15 | SLTKLETVGQKKSENIA | DQSMRYE | QQYSRLPLK | En_Gibbs |
| 11 | 0.34 / -0.02 / 0.13 / 0.30 / 0.04 / 0.35 | 0.19 | KVSQSKLYESRNKNNVA | DASTRES | QQYHRLPLS | GP_Gen |
| 12 | 0.02 / 0.31 / 0.39 / 0.11 / 0.08 / 0.35 | 0.21 | HVAQTRQEDISNKKNVA | EGSVVID | QQYSKLPFS | En_Gibbs |
| 13 | 0.32 / 0.31 / 0.24 / 0.15 / 0.13 / 0.59 | 0.29 | KVSGSQLYESRNSNSVA | DASNRES | QQYHRLPLS | GP_Gibbs |
| 14 | 0.46 / 0.18 / 0.17 / 0.37 / 0.33 / 0.32 | 0.31 | KYLQSVLYESRNKNSVA | HASTRED | QQYHQLPLS | GP_HC |
| 15 | 0.10 / 0.37 / 0.03 / 0.40 / 0.39 / 0.59 | 0.31 | KSSQSVRYESRNKNSVA | DASTRES | QQYHRLPLS | Ctrl |
| 16 | 0.42 / 0.45 / 0.50 / 0.45 / 0.48 / 0.50 | 0.46 | NMKVGLNFEDINHQAIA | SVDEREK | QQYSRLPLT | En_Gibbs |
| 17 | 0.34 / 0.63 / 0.70 / 0.36 / 0.49 / 0.77 | 0.55 | TISTSMRYESSLRNAIA | NAQTRES | QQYHRLPLS | En_HC |
| 18 | n.d. / n.d. / n.d. / 0.11 / 1.07 / 0.57 | 0.58 | KIIQSVLYESRNKNSVA | WASTRES | QQYHRIQLS | Ctrl |
| 19 | 0.71 / 0.38 / 0.67 / 0.58 / 0.79 / 0.72 | 0.64 | SVQVYTENFMERGQNIA | DASAKTV | QQYHRLPLA | En_Gibbs |
| 20 | 0.54 / 0.85 / 0.55 / 0.41 / 0.55 / 0.98 | 0.65 | KLQQLMLYESRMKNNVA | NASTRWS | QQYHRLPLS | GP_Gibbs |
| 21 | 0.80 / 0.42 / 1.04 / 0.84 / 1.04 / 0.65 | 0.80 | TISTSMRYESSLKNAIA | NAQTRES | QQYHRLPIS | En_HC |
| 22 | 1.17 / 0.86 / 0.99 / 0.63 / 1.08 / 1.22 | 0.99 | RLTEHTSERAYADASVA | NASTRND | QQYHRLPLF | En_Gibbs |
| 23 | 1.67 / 1.37 / 1.48 / n.d. / 1.49 / 1.44 | 1.49 | MLDQMDSQMGVNTNNVA | GVVESRI | QQYHRLPLS | En_Gibbs |
| 24 | 0.44 / 2.00 / 1.41 / 2.18 / 1.90 / 1.43 | 1.56 | IISGSMLMESRNKNSVA | NAETREY | QHYDRLPLS | En_HC |
| 25 | 1.19 / 1.76 / 1.76 / 1.47 / 1.87 / 1.34 | 1.56 | KISGQYRYEQLSKNNIA | EAQTRLK | QQYHRLPLS | En_HC |
| 26 | n.d. / 2.69 / 1.77 / 1.60 / n.d. / n.d. | 2.02 | KLVQSVLYESRNDNSIA | WASTRES | QQYHRLPLS | Ctrl |
| 27 | n.d. / n.d. / 2.05 / n.d. / n.d. / n.d. | 2.05 | SLGLVTMLEYAGRNSVA | NNSTREQ | QQYDRLPLS | En_Gen |
| 28 | n.d. / n.d. / n.d. / n.d. / 2.67 / 1.60 | 2.14 | QLSLMENHMGDRMWSVA | DANQAKT | QDYFRLPLM | En_Gibbs |
| 29 | n.d. / n.d. / 2.24 / n.d. / n.d. / n.d. | 2.24 | KSSVSVLYESTNKNSVA | CASTPES | EQCHRLPWF | Ctrl |
| 30 | n.d. / n.d. / n.d. / n.d. / n.d. / n.d. | n.d. | IVSQLMLWGMHVKNSIA | EAVTRIN | QQYERLPLF | En_Gen |
| 31 | n.d. / n.d. / n.d. / n.d. / n.d. / n.d. | n.d. | MISQLMNMGYFAINSVA | QASERSN | QQYDRLPLI | En_Gen |
| 32 | n.d. / n.d. / n.d. / n.d. / n.d. / n.d. | n.d. | HLSYSTDLESVHKNSIA | DLMTRES | QQYHRLPLS | En_HC |
| 33 | n.d. / n.d. / n.d. / n.d. / n.d. / n.d. | n.d. | KSSQSVLHESRNKNSVA | WASTRIS | QQYHRLPLS | Ctrl |
| 34 | n.d. / n.d. / n.d. / n.d. / n.d. / n.d. | n.d. | SISNLGMVPSVWQNSIA | DVTIVEE | QQYSRLPLL | En_Gibbs |

A selection of 4 entries from above:

| CDR-L1 | CDR-L2 | CDR-L3 | group | log10 Kd, replicates | mean log10 Kd (nM) |
|---|---|---|---|---|---|
| KFSQSELFESRNKNSVA | DASTRES | QQYHRLPLS | GP_HC | -0.17 / -0.36 / -0.33 / -0.55 / -0.50 / -0.27 | -0.36 |
| KISGQYRYEQLSKNNIA | EAQTRLK | QQYHRLPLS | En_HC | 1.19 / 1.76 / 1.76 / 1.47 / 1.87 / 1.34 | 1.56 |
| KLQQLMLYESRMKNNVA | NASTRWS | QQYHRLPLS | GP_Gibbs | 0.54 / 0.85 / 0.55 / 0.41 / 0.55 / 0.98 | 0.65 |
| KSDDSVSYTSRNKNSVA | EASTRES | MQYHRLPLS | Ctrl | 0.32 / -0.70 / -0.71 / -0.41 / -0.55 / -0.19 | -0.37 |

Source: Li et al. 2023 (doi:10.1038/s41467-023-39022-2), MIT Lincoln Laboratory and A-Alpha Bio; data file from the FLAb repository.